{
  "source": "patent US10449157B2",
  "about": "“Process for producing microcapsules comprising an active component encapsulated, protected and stabilised within a protein shell” (Anabio Technologies Limited, priority 2013, dated 2019)",
  "assay": "Stability trials of free and encapsulated Creatine in water (HPLC)",
  "conditions": "after 1 hour in water at room temperature",
  "data": [
    {"smiles": "CN(CC(=O)O)C(=N)N.O", "note": "[commercial Creatine monohydrate, Creatine monohydrate]", "values": [
      {"measurement": "initial Creatine concentration still present", "result": "9%±1.34%"}
    ]}
  ]
}
